Assay [1] has as its target Voltage-dependent calcium channel subunit alpha-2/delta-1 (Homo sapiens, UniProt P54289).
The target of a further assay is Mu-type opioid receptor (Homo sapiens, UniProt P35372). Briefly: ASSAY_NAME: Human mu-Opioid Receptor Radioligand Assay DESCRIPTION: To investigate binding properties of test compounds to human μ-opioid receptor, transfected CHO-K1 cell membranes and [3H]-DAMGO (Perkin Elmer, ES-542-C), as the radioligand, were used. The assay was carried out with 20 μg of membrane suspension, 1 nM of [3H]-DAMGO in either absence or presence of either buffer or 10 &#9.

Chains of the proteins cited; added tags and fusions are not shown. Residues count along the entry.
UniProt P54289, 25-956 limits assumed: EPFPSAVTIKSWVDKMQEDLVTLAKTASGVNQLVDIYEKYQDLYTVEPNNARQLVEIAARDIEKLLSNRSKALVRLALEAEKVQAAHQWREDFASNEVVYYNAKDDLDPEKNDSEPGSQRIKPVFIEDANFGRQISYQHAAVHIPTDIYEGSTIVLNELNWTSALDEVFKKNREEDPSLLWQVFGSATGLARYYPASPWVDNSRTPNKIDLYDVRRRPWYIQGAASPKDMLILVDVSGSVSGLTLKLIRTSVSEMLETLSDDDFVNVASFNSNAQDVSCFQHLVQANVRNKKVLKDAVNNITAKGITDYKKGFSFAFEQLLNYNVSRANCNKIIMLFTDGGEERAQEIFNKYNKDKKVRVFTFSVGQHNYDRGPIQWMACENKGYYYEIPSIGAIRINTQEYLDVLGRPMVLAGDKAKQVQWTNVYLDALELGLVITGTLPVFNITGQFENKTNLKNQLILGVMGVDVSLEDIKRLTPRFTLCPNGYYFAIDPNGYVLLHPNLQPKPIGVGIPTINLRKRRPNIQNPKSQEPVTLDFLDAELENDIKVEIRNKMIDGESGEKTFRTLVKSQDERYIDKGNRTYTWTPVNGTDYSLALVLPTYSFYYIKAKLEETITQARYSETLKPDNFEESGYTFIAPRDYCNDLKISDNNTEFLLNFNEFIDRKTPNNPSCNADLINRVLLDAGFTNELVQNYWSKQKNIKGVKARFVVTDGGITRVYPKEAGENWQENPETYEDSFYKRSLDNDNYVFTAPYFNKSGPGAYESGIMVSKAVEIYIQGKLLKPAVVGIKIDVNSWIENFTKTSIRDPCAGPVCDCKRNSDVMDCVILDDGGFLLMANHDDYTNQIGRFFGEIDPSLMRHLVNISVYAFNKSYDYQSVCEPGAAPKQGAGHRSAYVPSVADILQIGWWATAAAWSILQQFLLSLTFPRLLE
UniProt P54289, 957-1103 limits assumed: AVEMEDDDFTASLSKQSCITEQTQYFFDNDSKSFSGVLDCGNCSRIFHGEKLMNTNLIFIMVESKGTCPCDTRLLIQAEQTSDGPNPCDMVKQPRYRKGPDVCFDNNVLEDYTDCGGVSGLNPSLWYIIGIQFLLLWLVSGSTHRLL
UniProt P35372, whole entry: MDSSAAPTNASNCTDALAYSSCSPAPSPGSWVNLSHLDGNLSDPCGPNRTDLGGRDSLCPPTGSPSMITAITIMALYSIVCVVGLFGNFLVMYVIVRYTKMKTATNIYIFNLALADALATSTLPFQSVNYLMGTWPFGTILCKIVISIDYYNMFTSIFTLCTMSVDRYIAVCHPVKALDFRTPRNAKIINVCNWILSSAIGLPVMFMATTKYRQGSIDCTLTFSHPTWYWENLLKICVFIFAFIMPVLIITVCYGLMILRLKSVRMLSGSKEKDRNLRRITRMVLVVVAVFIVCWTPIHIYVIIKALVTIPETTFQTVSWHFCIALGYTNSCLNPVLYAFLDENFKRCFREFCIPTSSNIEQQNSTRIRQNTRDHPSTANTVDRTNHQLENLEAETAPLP

pKi: −log10 of the molar value.

As a reminder, the pKi is −log10 of the Ki, conventionally taken in molar units.

As to `Cc1nnc(-c2cccc(-n3ccc(N(C(=O)c4cccc(O)c4)C4C[C@@H](C)N[C@@H](C)C4)n3)c2)o1` (stereo partly drawn), the negative-log Ki (pKi) in assay [1] is 5.56.

Consider `O=C(c1cccs1)N(c1ccn(-c2ccccc2)n1)C1CCNC(Cc2ccccc2)C1` (stereo not drawn), for which, in assay [1], the pKi is 5.56.

In the case of `O=C(c1cccs1)N(c1ccn(-c2ccccc2)n1)C1CCNCC1`, the pKi at Mu-type opioid receptor was less than 6.30.

For the origin of these results see BindingDB's records for US10577360.
